The numbers were not newly measured in publication PMC2747657 (Bioorganic & medicinal chemistry, 2009), which cites them from elsewhere.

The chains behind the UniProt entries cited, without tags or fusion partners. Residues count along the entry.
UniProt Q63380, 1-617: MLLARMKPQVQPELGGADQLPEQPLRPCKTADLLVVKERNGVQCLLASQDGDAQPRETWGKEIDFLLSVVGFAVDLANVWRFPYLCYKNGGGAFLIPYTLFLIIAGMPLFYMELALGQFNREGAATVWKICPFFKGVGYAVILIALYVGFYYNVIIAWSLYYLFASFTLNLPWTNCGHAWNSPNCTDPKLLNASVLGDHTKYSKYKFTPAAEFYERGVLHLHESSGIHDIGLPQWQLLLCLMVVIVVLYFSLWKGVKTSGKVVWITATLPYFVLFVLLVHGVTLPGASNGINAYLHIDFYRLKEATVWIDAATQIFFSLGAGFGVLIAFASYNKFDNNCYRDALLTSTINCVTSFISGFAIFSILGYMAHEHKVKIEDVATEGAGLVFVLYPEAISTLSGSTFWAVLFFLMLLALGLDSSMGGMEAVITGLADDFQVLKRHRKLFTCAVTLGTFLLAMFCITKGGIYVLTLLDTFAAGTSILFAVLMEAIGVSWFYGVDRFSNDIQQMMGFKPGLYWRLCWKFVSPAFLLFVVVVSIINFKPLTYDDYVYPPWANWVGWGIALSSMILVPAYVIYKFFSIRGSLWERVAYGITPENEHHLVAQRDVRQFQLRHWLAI

SMILES strings stand for the structures.

The term Ki denotes a measure of affinity in units of concentration, obtained from inhibition or displacement.

For the series, the target named is NET (Rattus norvegicus, UniProt Q63380). The conditions noted are these: read-out: NET, Ki [3H]nisoxetine; inhibition of [3H]nisoxetine binding; cited from earlier work.

For the compound `COC(=O)[C@H]1[C@@H](OC(=O)c2ccccc2)C[C@@H]2CC[C@H]1N2C` [Cocaine, cocaine], the Ki is 1.99 µM.
